Key:
[1] = biological target: Carbonic anhydrase 9 (Homo sapiens, UniProt Q16790)
[2] = biological target: Carbonic anhydrase 1 (Homo sapiens, UniProt P00915)

Row | Ki [1] [nM] | Ki [2] [nM] | Structure (SMILES)
1 | 7.5 | – | CC(=O)OC[C@H]1O[C@@H](NC(=S)NCc2ccc(S(N)(=O)=O)cc2)[C@H](OC(C)=O)[C@@H](OC(C)=O)[C@@H]1O[C@H]1O[C@H](COC(C)=O)[C@@H](OC(C)=O)[C@H](OC(C)=O)[C@H]1OC(C)=O
2 | 7.3 | – | CC(=O)OC[C@H]1O[C@@H](O[C@H]2[C@H](OC(C)=O)[C@@H](OC(C)=O)[C@H](NC(=S)NCc3ccc(S(N)(=O)=O)cc3)O[C@@H]2COC(C)=O)[C@H](OC(C)=O)[C@@H](OC(C)=O)[C@H]1OC(C)=O
3 | – | 4780 | NS(=O)(=O)c1ccc(C(=O)NNC(=S)N[C@@H]2O[C@H](CO)[C@@H](O[C@H]3O[C@H](CO)[C@@H](O)[C@H](O)[C@H]3O)[C@H](O)[C@H]2O)cc1
4 | – | 110 | NS(=O)(=O)c1ccc(C(=O)NNC(=S)N[C@@H]2O[C@H](CO)[C@@H](O[C@@H]3O[C@H](CO)[C@H](O)[C@H](O)[C@H]3O)[C@H](O)[C@H]2O)cc1
